Protein sequences, listed by entry. Tags and fused reporters are not part of them.
UniProt P25021, whole entry: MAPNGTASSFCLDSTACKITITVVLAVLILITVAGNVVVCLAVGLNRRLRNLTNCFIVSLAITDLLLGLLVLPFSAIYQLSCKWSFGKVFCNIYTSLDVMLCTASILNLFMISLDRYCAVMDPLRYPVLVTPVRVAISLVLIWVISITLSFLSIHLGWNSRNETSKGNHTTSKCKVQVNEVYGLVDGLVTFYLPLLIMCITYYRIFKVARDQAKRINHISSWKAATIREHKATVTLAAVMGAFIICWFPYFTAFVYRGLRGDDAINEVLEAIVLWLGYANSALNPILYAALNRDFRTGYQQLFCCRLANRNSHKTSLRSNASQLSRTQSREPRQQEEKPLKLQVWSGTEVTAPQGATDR
UniProt P47747, whole entry: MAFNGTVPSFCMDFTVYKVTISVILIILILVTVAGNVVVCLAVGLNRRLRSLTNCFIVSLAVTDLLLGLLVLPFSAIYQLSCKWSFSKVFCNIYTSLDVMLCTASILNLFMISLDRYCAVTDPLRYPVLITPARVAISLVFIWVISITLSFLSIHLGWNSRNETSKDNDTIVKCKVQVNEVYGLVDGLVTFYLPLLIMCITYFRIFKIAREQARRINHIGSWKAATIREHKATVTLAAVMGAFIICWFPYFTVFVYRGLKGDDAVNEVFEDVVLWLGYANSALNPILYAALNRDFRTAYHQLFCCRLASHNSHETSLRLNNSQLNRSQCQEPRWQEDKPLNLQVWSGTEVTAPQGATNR

The target in one experiment is T1, Histamine H2 receptor (Homo sapiens, UniProt P25021). The experiment is described as follows: Agonist activity at human histamine H2 receptor expressed in sf9 insect cell membranes co-exprssing GsalphaS assessed as intrinsic activity at >=30 uM incubated for 90 mins [35S]GTPgammaS binding based microbeta scintillation counting analysis relative to histamine. In kind it is functional. The note with it: Membrane, filed as agonist, dose microM >=30, time 90.0 min.
For `Cc1ccc(CC(C)CNC(=O)/N=C(\N)NCCCc2sc(N)nc2C)cc1` (centres undefined), the Intrinsic activity is 0.68.

A further experiment deals with Histamine H2 receptor (Cavia porcellus) (UniProt P47747). The experiment in a line: Agonist activity at guinea pig right atrium histamine H2 receptor assessed as intrinsic activity incubated for 30 mins in presence of cimetidine relative to histamine. It counts as functional, tissue-based. The note with it: Right cardiac atrium, filed as agonist.
With `Cc1nc(N)sc1CCCN/C(N)=N/C(=O)N[C@H](C)c1ccccc1`, the Intrinsic activity was determined as 0.95. Same read-out and setting: then `Cc1nc(N)sc1CCCN/C(N)=N/C(=O)NC(C)c1cccc(F)c1` (centres undefined), with 0.85; and `Cc1nc(N)sc1CCCN/C(N)=N/C(=O)NC(c1ccccc1)c1ccccc1`, with 0.9; and `CCCCCNC(=O)/N=C(\N)NCCCc1sc(N)nc1C`, with 0.78. Turning to `Cc1nc(N)sc1CCCN/C(N)=N/C(=O)N[C@@H](C)c1ccccc1`, the Intrinsic activity is 1.08.

Another experiment addresses T1, Histamine H2 receptor. The experiment in a line: Agonist activity at human histamine H2 receptor expressed in HEK293T cells co-expressing ELucC assessed as intrinsic activity at >= 30 uM by beta arrestin2 recruitment assay relative to histamine. In kind it is functional, cell-based. The note with it: filed as agonist, dose microM >=30.
Turning to `Cc1nc(N)sc1CCCN/C(N)=N/C(=O)NCC(C)CC1CCCCC1` (centres undefined), the Intrinsic activity stood at 0.22. In the case of `CCC(CNC(=O)/N=C(\N)NCCCc1sc(N)nc1C)c1ccccc1` (centres undefined), the Intrinsic activity was 0.16.

With `Cc1ccc(CC(C)CNC(=O)/N=C(\N)NCCCc2sc(N)nc2C)cc1` (centres undefined), the Intrinsic activity stood at 0.1.

The values are drawn from ChEMBL document CHEMBL4813951 (Eur J Med Chem, 2021).
